Test results from EP4834897A1, “COMPOUNDS WITH TWO AZAHETEROCYCLES SUBSTITUTED ISOINDOLINONE SKELETON AND USES THEREOF” (dated 2026).

Protein sequences, listed by entry. Tags and fused reporters are not part of them.
UniProt P30291, whole entry: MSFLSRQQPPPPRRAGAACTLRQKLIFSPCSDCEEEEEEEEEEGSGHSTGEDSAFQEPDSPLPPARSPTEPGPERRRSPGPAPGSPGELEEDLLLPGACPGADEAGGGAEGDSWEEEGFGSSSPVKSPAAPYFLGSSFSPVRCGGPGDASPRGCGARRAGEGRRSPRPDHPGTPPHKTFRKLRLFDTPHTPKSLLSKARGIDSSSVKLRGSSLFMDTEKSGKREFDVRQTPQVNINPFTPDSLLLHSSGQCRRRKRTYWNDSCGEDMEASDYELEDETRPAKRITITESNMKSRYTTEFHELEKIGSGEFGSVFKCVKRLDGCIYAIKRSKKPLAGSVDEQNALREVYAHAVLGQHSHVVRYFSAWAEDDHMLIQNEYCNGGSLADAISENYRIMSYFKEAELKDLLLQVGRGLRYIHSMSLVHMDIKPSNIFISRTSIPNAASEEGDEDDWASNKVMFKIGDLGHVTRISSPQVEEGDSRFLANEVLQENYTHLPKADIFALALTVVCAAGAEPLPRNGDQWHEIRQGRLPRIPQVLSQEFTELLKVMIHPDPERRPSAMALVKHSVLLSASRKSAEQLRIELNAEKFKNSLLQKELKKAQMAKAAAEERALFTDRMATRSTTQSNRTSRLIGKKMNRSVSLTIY
UniProt Q96SW2, whole entry: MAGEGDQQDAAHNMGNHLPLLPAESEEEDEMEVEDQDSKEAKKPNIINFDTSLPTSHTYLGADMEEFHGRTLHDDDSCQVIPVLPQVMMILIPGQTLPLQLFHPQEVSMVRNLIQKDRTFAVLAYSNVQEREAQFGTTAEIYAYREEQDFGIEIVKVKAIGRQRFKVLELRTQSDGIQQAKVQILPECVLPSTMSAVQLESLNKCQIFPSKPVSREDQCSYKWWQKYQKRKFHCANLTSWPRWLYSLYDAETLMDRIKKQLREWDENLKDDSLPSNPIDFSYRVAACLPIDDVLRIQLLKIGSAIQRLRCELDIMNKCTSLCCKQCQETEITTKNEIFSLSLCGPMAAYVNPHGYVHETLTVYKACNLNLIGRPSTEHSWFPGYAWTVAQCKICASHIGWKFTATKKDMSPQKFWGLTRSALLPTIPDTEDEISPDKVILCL
UniProt P48729, whole entry: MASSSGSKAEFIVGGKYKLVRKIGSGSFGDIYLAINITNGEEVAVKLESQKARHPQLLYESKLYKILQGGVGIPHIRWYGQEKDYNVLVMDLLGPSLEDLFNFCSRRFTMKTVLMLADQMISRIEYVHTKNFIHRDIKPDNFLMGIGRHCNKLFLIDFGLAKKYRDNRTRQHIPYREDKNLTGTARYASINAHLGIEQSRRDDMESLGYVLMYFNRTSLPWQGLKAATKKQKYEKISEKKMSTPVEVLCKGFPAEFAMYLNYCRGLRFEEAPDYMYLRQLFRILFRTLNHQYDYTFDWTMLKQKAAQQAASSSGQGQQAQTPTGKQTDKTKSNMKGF
UniProt P15170, whole entry: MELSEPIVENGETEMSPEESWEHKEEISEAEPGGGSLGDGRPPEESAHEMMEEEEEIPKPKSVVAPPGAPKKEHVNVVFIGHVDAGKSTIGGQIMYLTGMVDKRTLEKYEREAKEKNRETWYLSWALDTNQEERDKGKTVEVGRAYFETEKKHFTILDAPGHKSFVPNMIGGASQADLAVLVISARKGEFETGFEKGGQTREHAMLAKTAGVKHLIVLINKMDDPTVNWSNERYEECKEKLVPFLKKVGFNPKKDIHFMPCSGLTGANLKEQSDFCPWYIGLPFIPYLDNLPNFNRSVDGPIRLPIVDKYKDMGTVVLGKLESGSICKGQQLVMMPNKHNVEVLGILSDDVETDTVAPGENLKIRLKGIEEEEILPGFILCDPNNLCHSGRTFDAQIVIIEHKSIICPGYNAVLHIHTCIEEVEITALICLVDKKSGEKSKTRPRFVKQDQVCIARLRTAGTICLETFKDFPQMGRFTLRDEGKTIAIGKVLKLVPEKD
UniProt Q9UKT9, whole entry: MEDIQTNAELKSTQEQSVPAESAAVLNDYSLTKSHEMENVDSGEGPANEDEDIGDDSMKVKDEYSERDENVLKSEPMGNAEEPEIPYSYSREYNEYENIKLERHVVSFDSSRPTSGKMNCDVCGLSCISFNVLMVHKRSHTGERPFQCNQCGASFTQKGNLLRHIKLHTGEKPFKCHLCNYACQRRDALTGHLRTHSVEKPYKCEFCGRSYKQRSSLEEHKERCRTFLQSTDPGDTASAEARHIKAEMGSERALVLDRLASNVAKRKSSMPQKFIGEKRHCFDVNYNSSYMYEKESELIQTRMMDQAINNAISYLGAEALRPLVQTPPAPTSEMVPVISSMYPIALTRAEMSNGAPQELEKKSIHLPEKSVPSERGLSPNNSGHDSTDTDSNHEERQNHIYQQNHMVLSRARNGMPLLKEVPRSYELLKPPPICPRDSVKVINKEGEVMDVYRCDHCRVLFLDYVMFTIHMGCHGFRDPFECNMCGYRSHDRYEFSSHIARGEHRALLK
UniProt Q9UKS7, whole entry: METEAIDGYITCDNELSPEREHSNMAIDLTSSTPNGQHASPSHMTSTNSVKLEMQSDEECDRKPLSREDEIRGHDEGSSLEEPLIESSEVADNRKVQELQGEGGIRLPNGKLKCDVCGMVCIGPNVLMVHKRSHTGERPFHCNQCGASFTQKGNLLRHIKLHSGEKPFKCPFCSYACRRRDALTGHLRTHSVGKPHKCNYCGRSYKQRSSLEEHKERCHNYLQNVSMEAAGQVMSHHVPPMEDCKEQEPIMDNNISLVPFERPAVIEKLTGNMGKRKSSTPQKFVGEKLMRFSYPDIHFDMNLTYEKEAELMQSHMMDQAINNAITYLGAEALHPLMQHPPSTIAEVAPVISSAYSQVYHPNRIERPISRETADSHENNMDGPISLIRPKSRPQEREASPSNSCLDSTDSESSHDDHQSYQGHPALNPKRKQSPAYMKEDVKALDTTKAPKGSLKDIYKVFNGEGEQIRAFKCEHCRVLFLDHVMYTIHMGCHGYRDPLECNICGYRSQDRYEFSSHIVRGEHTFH
UniProt Q13422, whole entry: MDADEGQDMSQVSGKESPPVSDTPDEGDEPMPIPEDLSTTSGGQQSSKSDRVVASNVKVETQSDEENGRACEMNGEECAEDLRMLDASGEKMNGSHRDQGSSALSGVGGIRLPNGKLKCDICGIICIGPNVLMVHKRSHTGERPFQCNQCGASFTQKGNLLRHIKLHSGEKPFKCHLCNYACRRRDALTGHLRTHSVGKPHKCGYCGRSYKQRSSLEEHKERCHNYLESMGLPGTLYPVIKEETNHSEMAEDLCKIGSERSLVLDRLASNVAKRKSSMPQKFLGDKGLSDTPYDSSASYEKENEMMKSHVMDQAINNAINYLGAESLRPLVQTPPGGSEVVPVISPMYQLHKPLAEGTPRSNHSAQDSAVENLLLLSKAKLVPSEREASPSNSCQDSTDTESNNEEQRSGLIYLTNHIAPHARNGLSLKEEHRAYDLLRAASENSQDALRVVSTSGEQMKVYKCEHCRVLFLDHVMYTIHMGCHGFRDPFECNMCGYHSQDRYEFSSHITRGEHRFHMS
UniProt Q16531, whole entry partner: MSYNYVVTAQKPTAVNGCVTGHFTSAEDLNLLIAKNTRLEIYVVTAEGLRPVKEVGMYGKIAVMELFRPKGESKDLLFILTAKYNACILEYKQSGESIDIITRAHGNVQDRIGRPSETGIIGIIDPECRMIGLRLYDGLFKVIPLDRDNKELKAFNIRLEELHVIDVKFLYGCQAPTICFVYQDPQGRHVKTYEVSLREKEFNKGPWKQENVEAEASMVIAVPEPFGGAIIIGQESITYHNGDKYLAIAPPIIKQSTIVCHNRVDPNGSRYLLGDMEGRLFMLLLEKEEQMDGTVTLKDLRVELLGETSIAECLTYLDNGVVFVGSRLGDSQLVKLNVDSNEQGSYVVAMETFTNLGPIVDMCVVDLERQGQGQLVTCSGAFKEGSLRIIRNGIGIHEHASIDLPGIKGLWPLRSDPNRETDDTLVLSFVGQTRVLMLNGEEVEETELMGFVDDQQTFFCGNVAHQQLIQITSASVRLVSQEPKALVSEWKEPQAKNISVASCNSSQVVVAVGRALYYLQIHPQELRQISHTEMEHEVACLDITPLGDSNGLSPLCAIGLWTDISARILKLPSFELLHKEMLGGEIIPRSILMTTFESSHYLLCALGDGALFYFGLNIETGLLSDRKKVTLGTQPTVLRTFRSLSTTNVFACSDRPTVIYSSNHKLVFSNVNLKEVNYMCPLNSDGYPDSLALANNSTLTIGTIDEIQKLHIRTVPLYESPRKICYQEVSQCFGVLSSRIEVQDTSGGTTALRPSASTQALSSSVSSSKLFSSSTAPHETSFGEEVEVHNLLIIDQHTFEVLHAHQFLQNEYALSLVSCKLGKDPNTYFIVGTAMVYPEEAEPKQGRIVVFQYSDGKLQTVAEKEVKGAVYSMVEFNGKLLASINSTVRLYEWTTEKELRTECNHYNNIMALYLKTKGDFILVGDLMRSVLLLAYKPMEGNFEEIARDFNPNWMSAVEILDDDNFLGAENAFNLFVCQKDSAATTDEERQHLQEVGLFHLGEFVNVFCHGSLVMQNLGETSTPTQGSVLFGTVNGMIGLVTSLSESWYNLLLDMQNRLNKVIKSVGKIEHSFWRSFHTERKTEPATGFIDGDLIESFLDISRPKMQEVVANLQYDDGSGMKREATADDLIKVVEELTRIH

Tests used:
WEE1 = WEE1 (Homo sapiens, UniProt P30291+Q96SW2); experiment: Western blot assay of substrate protein degradation in hPBMCs; details: 24 hours treatment, compounds at 50 nM and 500 nM (concentration behind the class not stated)
CK1α = CK1α (Homo sapiens, UniProt P48729+Q96SW2); experiment: as above; details: 24 hours treatment, compounds at 50 nM and 500 nM (concentration behind the class not stated)
GSPT1 = GSPT1 (Homo sapiens, UniProt P15170+Q96SW2); experiment: as above; details: 24 hours treatment, compounds at 50 nM and 500 nM (concentration behind the class not stated)
IKZF3 = IKZF3 (Homo sapiens, UniProt Q96SW2+Q9UKT9); experiment: as above; details: 24 hours treatment, compounds at 50 nM and 500 nM (concentration behind the class not stated)
IKZF2 = IKZF2 (Homo sapiens, UniProt Q96SW2+Q9UKS7); experiment: as above; details: 24 hours treatment, compounds at 50 nM and 500 nM (concentration behind the class not stated)
IKZF1 = IKZF1 (Homo sapiens, UniProt Q13422+Q96SW2); experiment: as above; details: 24 hours treatment, compounds at 50 nM and 500 nM (concentration behind the class not stated)
[1] = system: Human diffuse large B-cell lymphoma cell (TMD8); experiment: Tumor cell proliferation inhibition (cell viability assay); details: TMD8 cells, 96 hours
CRBN = CRBN (Homo sapiens, UniProt Q96SW2); experiment: CRBN binding affinity by HTRF (CEREBLON BINDING kit); details: for Inhibition Rate at 0.5 µM (%) / Inhibition Rate at 2 µM (%): CRBN binding, HTRF; for Inhibition Rate at 0.5 µM (%): compound at 0.5 µM; for Inhibition Rate at 2 µM (%): compound at 2 µM
[2] = system: Human colon cancer cell (SW620); experiment: Tumor cell proliferation inhibition (cell viability assay); details: SW620 cells, 96 hours
[3] = system: Human myeloid monocytic leukemia cell (MV-4-11); experiment: as above; details: MV-4-11 cells, 96 hours
[4] = system: Human breast cancer cell (MCF-7); experiment: as above; details: MCF-7 cells, 96 hours
[5] = system: Human multiple myeloma cell (MM.1S); experiment: as above; details: MM.1S cells, 96 hours
[6] = system: Human acute T lymphocytic leukemia cell (Molt4); experiment: as above; details: Molt4 cells, 96 hours
[7] = system: Human mantle cell lymphoma cell line (JEKO-1); experiment: as above; details: JEKO-1 cells, 96 hours

Row | Compound | Inhibition Rate at 0.5 µM (%) (CRBN) | Inhibition Rate at 2 µM (%) (CRBN) | substrate protein remaining % (WEE1) (WEE1) | substrate protein remaining % (CK1a) (CK1α) | substrate protein remaining % (GSPT1) (GSPT1) | substrate protein remaining % (IKZF3) (IKZF3) | substrate protein remaining % (IKZF2) (IKZF2) | substrate protein remaining % (IKZF 1) (IKZF1) | Inhibition Rate at 10 nM (%) [2] | Inhibition Rate at 500 nM (%) [2] | Inhibition Rate at 10 nM (%) [3] | Inhibition Rate at 500 nM (%) [3] | Inhibition Rate at 10 nM (%) [4] | Inhibition Rate at 500 nM (%) [4] | Inhibition Rate at 10 nM (%) [5] | Inhibition Rate at 500 nM (%) [5] | Inhibition Rate at 10 nM (%) [6] | Inhibition Rate at 500 nM (%) [6] | Inhibition Rate at 10 nM (%) [7] | Inhibition Rate at 500 nM (%) [7] | also measured
1 | CC1(C)CCC(CN2CCN(C3CCN(C(=O)c4cccc5c4CN(C4CCC(=O)NC4=O)C5=O)CC3(F)F)CC2)=C(c2ccc(Cl)cc2)C1 (stereo not drawn) | a3 (30% < a3 ≤ 40%) | a6 (60% < a6 ≤ 70%) | B (80%< substrate protein remaining %≤ 100%) | A (0% ≤ substrate protein remaining % ≤ 80%) | A (0% ≤ substrate protein remaining % ≤ 80%) | B (80%< substrate protein remaining %≤ 100%) | B (80%< substrate protein remaining %≤ 100%) | B (80%< substrate protein remaining %≤ 100%) |  |  |  |  |  |  |  |  |  |  |  |  | Inhibition Rate at 10 nM (%) ([1]; 10 nM): 1f3 (10% ≤ 1f3 < 20%); Inhibition Rate at 500 nM (%) ([1]; 500 nM): 1f7 (50% ≤ 1f7 < 60%)
2 | O=C1CCC(N2Cc3cc(CN4CCC(N5CCN(c6noc7cc(F)ccc67)CC5)C(F)(F)C4)c(F)cc3C2=O)C(=O)N1 (stereo not drawn) |  |  | A (0% ≤ substrate protein remaining % ≤ 80%) | A (0% ≤ substrate protein remaining % ≤ 80%) | A (0% ≤ substrate protein remaining % ≤ 80%) | A (0% ≤ substrate protein remaining % ≤ 80%) | A (0% ≤ substrate protein remaining % ≤ 80%) | A (0% ≤ substrate protein remaining % ≤ 80%) | 1d9 (70% ≤ 1d9 < 80%) | 1d10 (80% ≤ 1d10 ≤ 100%) | 1a10 (80% ≤ 1a10 < 100%) | 1a11 (100% ≤ 1a11 ≤ 105%) | 1e5 (20% ≤ 1e5 < 30%) | 1e7 (40% ≤ 1e7 < 50%) | 1b10 (80% ≤ 1b10 ≤ 100%) | 1b10 (80% ≤ 1b10 ≤ 100%) | 1c11 (80% ≤ 1c11 ≤ 100%) | 1c11 (80% ≤ 1c11 ≤ 100%) |  |  | 
3 | O=C1CCC(N2Cc3c(CN4CCC(N5CC=C(c6cccc(Cl)c6Cl)CC5)C(F)(F)C4)cccc3C2=O)C(=O)N1 (stereo not drawn) |  |  | A (0% ≤ substrate protein remaining % ≤ 80%) | A (0% ≤ substrate protein remaining % ≤ 80%) | A (0% ≤ substrate protein remaining % ≤ 80%) | A (0% ≤ substrate protein remaining % ≤ 80%) | A (0% ≤ substrate protein remaining % ≤ 80%) | A (0% ≤ substrate protein remaining % ≤ 80%) | 1d4 (20% ≤ 1d4 < 30%) | 1d10 (80% ≤ 1d10 ≤ 100%) | 1a7 (50% ≤ 1a7 < 60%) | 1a11 (100% ≤ 1a11 ≤ 105%) | 1e5 (20% ≤ 1e5 < 30%) | 1e10 (70% ≤ 1e10 < 80%) | 1b7 (50% ≤ 1b7 < 60%) | 1b10 (80% ≤ 1b10 ≤ 100%) | 1c4 (10% ≤ 1c4 < 20%) | 1c11 (80% ≤ 1c11 ≤ 100%) | 1g4 (20% ≤ 1g4 < 30%) | 1g10 (80% ≤ 1g10 ≤ 100%) | 
4 | O=C1CCC(N2Cc3cc(CN4CCC(N5CCN(c6cccc(Cl)c6Cl)CC5)C(F)(F)C4)ccc3C2=O)C(=O)N1 (stereo not drawn) |  |  | A (0% ≤ substrate protein remaining % ≤ 80%) | B (80%< substrate protein remaining %≤ 100%) | A (0% ≤ substrate protein remaining % ≤ 80%) | A (0% ≤ substrate protein remaining % ≤ 80%) | A (0% ≤ substrate protein remaining % ≤ 80%) | A (0% ≤ substrate protein remaining % ≤ 80%) | 1d1 (0 < 1d1 < 5%) | 1d6 (40% ≤ 1d6 < 50%) | 1a6 (40% < 1a6 < 50%) | 1a10 (80% ≤ 1a10 < 100%) |  |  | 1b7 (50% ≤ 1b7 < 60%) | 1b10 (80% ≤ 1b10 ≤ 100%) | 1c5 (20% ≤ 1c5 < 30%) | 1c11 (80% ≤ 1c11 ≤ 100%) | 1g2 (5% ≤ 1g2 < 10%) | 1g6 (40% ≤ 1g6 < 50%) | IC50 (CRBN; read-out: HTRF IC50, human Cereblon WT GST-tagged protein, 3 hours at room temperature): 100 to 500 nM
5 | O=C1CCC(N2Cc3c(ccc(CN4CCC(N5CCN(c6cccc(Cl)c6Cl)CC5)C(F)(F)C4)c3F)C2=O)C(=O)N1 (stereo not drawn) |  |  | A (0% ≤ substrate protein remaining % ≤ 80%) | A (0% ≤ substrate protein remaining % ≤ 80%) | A (0% ≤ substrate protein remaining % ≤ 80%) | A (0% ≤ substrate protein remaining % ≤ 80%) | A (0% ≤ substrate protein remaining % ≤ 80%) | A (0% ≤ substrate protein remaining % ≤ 80%) | 1d3 (10% ≤ 1d3 < 20%) | 1d9 (70% ≤ 1d9 < 80%) | 1a6 (40% < 1a6 < 50%) | 1a10 (80% ≤ 1a10 < 100%) | 1e6 (30% ≤ 1e6 < 40%) | 1e8 (50% ≤ 1e8 < 60%) | 1b6 (42% ≤ 1b6 < 50%) | 1b10 (80% ≤ 1b10 ≤ 100%) | 1c6 (30% ≤ 1c6 < 40%) | 1c10 (70% ≤ 1c10 < 80%) | 1g3 (10% ≤ 1g3 < 20%) | 1g8 (60% ≤ 1g8 < 70%) | 

Further lines, with some results ahead:

Row | Inhibition Rate at 0.5 µM (%) (CRBN) | Inhibition Rate at 2 µM (%) (CRBN) | Compound | substrate protein remaining % (WEE1) (WEE1) | substrate protein remaining % (CK1a) (CK1α) | substrate protein remaining % (GSPT1) (GSPT1) | substrate protein remaining % (IKZF3) (IKZF3) | substrate protein remaining % (IKZF2) (IKZF2) | substrate protein remaining % (IKZF 1) (IKZF1) | Inhibition Rate at 10 nM (%) [2] | Inhibition Rate at 500 nM (%) [2] | Inhibition Rate at 10 nM (%) [3] | Inhibition Rate at 500 nM (%) [3] | Inhibition Rate at 10 nM (%) [4] | Inhibition Rate at 500 nM (%) [4] | Inhibition Rate at 10 nM (%) [5] | Inhibition Rate at 500 nM (%) [5] | Inhibition Rate at 10 nM (%) [6] | Inhibition Rate at 500 nM (%) [6] | Inhibition Rate at 10 nM (%) [7] | Inhibition Rate at 500 nM (%) [7] | also measured
6 | a5 (53% < a5 ≤ 60%) | a7 (70% < a7 ≤80%) | O=C1CCC(N2Cc3cc(CN4CCC(N5CCN(C(c6ccccc6)c6ccccn6)CC5)C(F)(F)C4)c(F)cc3C2=O)C(=O)N1 (stereo not drawn) | A (0% ≤ substrate protein remaining % ≤ 80%) | A (0% ≤ substrate protein remaining % ≤ 80%) | A (0% ≤ substrate protein remaining % ≤ 80%) | A (0% ≤ substrate protein remaining % ≤ 80%) | A (0% ≤ substrate protein remaining % ≤ 80%) | A (0% ≤ substrate protein remaining % ≤ 80%) | 1d4 (20% ≤ 1d4 < 30%) | 1d9 (70% ≤ 1d9 < 80%) | 1a4 (20% ≤ 1a4 < 30%) | 1a10 (80% ≤ 1a10 < 100%) |  |  | 1b4 (20% ≤ 1b4 < 32%) | 1b10 (80% ≤ 1b10 ≤ 100%) | 1c4 (10% ≤ 1c4 < 20%) | 1c11 (80% ≤ 1c11 ≤ 100%) | 1g2 (5% ≤ 1g2 < 10%) | 1g6 (40% ≤ 1g6 < 50%) | 
7 | a2 (20% < a2 ≤ 30%) | a6 (60% < a6 ≤ 70%) | CC1(C)CCC(CN2CCN(C3CCN(Cc4cc5c(cc4F)C(=O)N(C4CCC(=O)NC4=O)C5)CC3(F)F)CC2)=C(c2ccc(Cl)cc2)C1 (stereo not drawn) | A (0% ≤ substrate protein remaining % ≤ 80%) | A (0% ≤ substrate protein remaining % ≤ 80%) | A (0% ≤ substrate protein remaining % ≤ 80%) | B (80%< substrate protein remaining %≤ 100%) | B (80%< substrate protein remaining %≤ 100%) | A (0% ≤ substrate protein remaining % ≤ 80%) | 1d7 (50% ≤ 1d7 < 60%) | 1d9 (70% ≤ 1d9 < 80%) | 1a9 (70% ≤ 1a9 < 80%) | 1a10 (80% ≤ 1a10 < 100%) | 1e5 (20% ≤ 1e5 < 30%) | 1e8 (50% ≤ 1e8 < 60%) | 1b7 (50% ≤ 1b7 < 60%) | 1b10 (80% ≤ 1b10 ≤ 100%) | 1c9 (60% ≤ 1c9 < 70%) | 1c10 (70% ≤ 1c10 < 80%) | 1g4 (20% ≤ 1g4 < 30%) | 1g6 (40% ≤ 1g6 < 50%) | 
